As a reminder, the inhibition is the change of the read-out against control, counted positive when it falls.

Only a part is listed here, and it is no random draw. Activity calls are given as the source filed them.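 Rule for the calls: active = inhibition above a set limit, the mean inhibition across all tested compounds plus 3 SD (cut at about 34% in these data); inactive = the rest.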

The nature of this test: STAT1 signaling inhibitors, primary screen, cell-based, HTS, luciferase reporter (AID 920).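 Note: 0% = IFN-gamma with DMSO and 100% = IFN-gamma with 300 µM nifuroxazide.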 The note with it: NIH 3T3 STAT1-luciferase reporter, IFN-gamma, luminescence; at 5.5 µM; stronger effect = higher value. (In a reporter assay the amount or activity of a reporter protein is the signal.)
On to `CN1CCC(Nc2cccc(F)c2)CC1`, for which the inhibition was inactive: -4.27%. On to `CN(C)c1cccc(C(=O)NCC2(N3CCCCC3)CCCCC2)c1`, for which the inhibition was inactive: -0.92%. In the case of `COc1ccc(CN(CCCl)CCCl)cc1Cl` it was inactive: 10.4%. In the case of `CC(C)c1ccc(NC2CCN(C(=O)OC(C)(C)C)CC2)cc1` it was inactive: -22.9%; in that of `COc1ccc(NC2CCN(C(=O)OC(C)(C)C)CC2)cc1`, inactive: -8.77%. The result for `CN1CCN(CCOC(=O)C(O)(c2ccccc2)c2ccccc2)CC1` reads inactive: -3.14%; that for `O=C(NCC1(N2CCOCC2)CCCCC1)c1cc(=O)[nH]c2ccccc12`, inactive: -0.13%; that for `O=C(NCC1(N2CCCCC2)CCCCC1)c1cccc([N+](=O)[O-])c1`, inactive: -0.09%. With `N#CC1(Nc2ccccc2)CCN(CCc2ccccc2)CC1`, the inhibition is inactive: -3.89%. The result for `COc1ccc(NC2CCN(CCc3ccccc3)CC2)c(OC)c1` reads inactive: -4.05%; that for `O=C(NCC1(N2CCOCC2)CCCCC1)c1cc2ccccc2o1`, inactive: 2.59%. As to `CCOC(=O)N1CCC(Nc2ccc(OC)cc2)CC1`, the inhibition is inactive: 13.7%.

With `O=C(OC1CN2CCC1CC2)C1c2ccccc2Oc2ccccc21` (stereo not given), the inhibition was inactive: -13.1%. On to `COc1ccc(C(=O)NCC2(N3CCCCC3)CCCCC2)c(OC)c1OC`, for which the inhibition was inactive: 3.28%. On to `CCC(CO)(C(=O)OC1CN2CCC1CC2)c1ccccc1` (stereo not given), for which the inhibition was inactive: -6.79%. In the case of `COc1cc(OC)cc(C(=O)NCC2(N3CCOCC3)CCCCC2)c1` it was inactive: 1.3%; in that of `CCOc1ncccc1C(=O)NCC1(N2CCOCC2)CCCCC1`, inactive: 3.84%.

Turning to `CC(C)(C)OC(=O)N1CCC(Nc2ccccc2)CC1`, the inhibition is inactive: 0.36%. For the compound `CCN1CCC(Nc2cccc(F)c2)CC1`, the inhibition was inactive: 5.71%. Consider `CN(C)c1ccc(C(=O)NCC2(N3CCCCC3)CCCCC2)cc1`, for which the inhibition was inactive: -8.17%.

For `c1ccc(CN2CCC(Nc3ccccc3)CC2)cc1`, the inhibition was inactive: -1.43%. For `N#Cc1ccc(C(=O)NCC2(N3CCCCC3)CCCCC2)cc1`, the inhibition was inactive: -6.38%. As for `N/C(=N\O)c1c(N)no[n+]1[O-]`, the inhibition is inactive: -0.63%.

In the case of `O=C(OC1CN2CCC1CC2)C1c2ccccc2C=Cc2ccccc21` (stereo not given), the inhibition is inactive: 6.43%.

In the case of `COc1ccc(C(=O)NCC2(N3CCOCC3)CCCCC2)cc1OC`, the inhibition is inactive: -2.08%.

Source of the values: PubChem BioAssay AID920 (The Scripps Research Institute Molecular Screening Center, 2007).
